The nature of data set [1]: Pharmacokinetics study in plasma of ICR mice, intravenous or oral administration. As to conditions: male ICR mice. The protocol:
The purpose of this study is to determine the pharmacokinetics parameters in plasma of compounds in ICR mice following intravenous or oral administration.
The formulations were based on sponsor's recommendation and will be prepared by the Testing Facility.
Species and Strain: ICR Mice (Male)
Source: Sino-British SIPPR Lab Animal Ltd, Shanghai
Number of Animals: Ordered: 8; Needed: 6
The test article was be administered via a single IV or PO dosing.
IV group: Post-dose at 5 min, 15 min, 30 min, 1 h, 2 h, 4 h, 8 h and 24 h.
PO group: Post-dose at 15 min, 30 min, 1 h, 2 h, 4 h, 6 h, 8 h and 24 h.
30˜40 μL/sample. Samples were be placed in tubes containing heparin sodium and stored on ice until centrifuged.
The PK blood samples were centrifuged at approximately 6800G for 6 minutes at 2-8° C. and the resulting plasma was transferred to appropriately labeled tubes within 2 hour of blood collection/centrifugation and stored frozen at approximately −70° C.
Method development and biological samples analysis for the test articles (Sodium heparin anticoagulant) were be performed by Testing Facility by means of LC-MS/MS. The analytical results were be confirmed using quality control samples for intra-assay variation. The accuracy of >66.7% of the quality control samples were be between 80-120% of the known value(s).
Pharmacokinetics Analysis
Standard set of parameters including Area Under the Curve (AUC(0-t) and AUC(0-∞)), elimination half-live (T1/2), maximum plasma concentration (Cmax) and time to reach maximum plasma concentration (Tmax) and other parameters were be calculated using Phoenix WinNonlin 7.0 (Pharsight, USA) by the Study Director.

By UniProt entry, the sequences of proteins in these tests, tags left out. Residues count along the entry.
UniProt P01116, 1-188 isoform 2 G12C: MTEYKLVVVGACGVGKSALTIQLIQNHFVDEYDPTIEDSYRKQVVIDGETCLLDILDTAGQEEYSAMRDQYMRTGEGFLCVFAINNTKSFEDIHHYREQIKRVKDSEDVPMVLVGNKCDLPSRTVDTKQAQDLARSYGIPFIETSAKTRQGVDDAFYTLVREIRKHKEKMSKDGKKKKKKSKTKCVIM

A further data set relates to A549. The experiment in a line: Tumor cell anti-proliferation assay (CTG assay), A549. The following applies: read-out: IC50 A549, A549, 3-days incubation. The procedure:
(§1) Assay 3: Tumor Cell Anti-Proliferation Assay (CTG Assay)
(§2) Tested tumor cell lines (MIA PaCa-2, NCI-H358, and A549) were seeded to the 96-well plate for overnight, then cells were treated with the test compound at 9 serially diluted concentrations in triplicate. After 3-days incubation with the test compound, the CTG assay was performed to evaluate the IC50. The 3 cell lines were tested in the same manner. Cisplatin were used as the positive control.
(§3) Day −1: Cell Plating for Cell Lines
(§4) 1. Adjust the cell concentration to the appropriated number with the medium, and for each well of a 96-well plate, add 90 μl cell suspensions (Cell concentration will be adjusted according to the data base or density optimization assay). 2. Incubate the plates for overnight in humidified incubator at […] with 5% CO2.
(§5) Day 0: T0 Plate Reading and Compound Treatment
(§6) 3. Add 10 μL culture medium to each well of plate A for T0 reading.
(§7) 4. Equilibrate the plate and its content at RT for approximately 30 min.
(§8) 5. Add 50 μL CellTiter-Glo® Reagent to each well for T0 reading.
(§9) 6. Mix contents for 2 minutes on an orbital shaker to facilitate cell lysis.
(§10) 7. Allow the plate to incubate at room temperature for 10 minutes to stabilize the luminescent signal. […]
(§11) 9. Record luminescence using an Envision Multi Label Reader. […]
(§12) Day 3: Plate Reading for 3-Day Assay […]
(§13) 17. Record luminescence using an Envision Multi Label Reader. […]

The target in another data set is KRAS G12C (Homo sapiens, UniProt P01116, G12C). The experiment in a line: KRAS GDP FI assay. The following applies: read-out: KRAS GDP FI IC50; kinetic reading Ex580/Em620 for 120 min.
The next data set deals with MIA PaCa-2. In words: Tumor cell anti-proliferation assay (CTG assay), MIA PaCa-2. As to conditions: read-out: IC50 MIA PaCa-2, MIA PaCa-2, 3-days incubation. The protocol:
as §1, §2, §3, §4, §5, §6, §7, §8, §9, §10, §11, §12, §13

The next data set has as its system NCI-H358. The experiment in a line: Tumor cell anti-proliferation assay (CTG assay), NCI-H358. The following applies: read-out: IC50 NCI-H358, NCI-H358, 3-days incubation. The protocol: as §1, §2, §3, §4, §5, §6, §7, §8, §9, §10, §11, §12, §13

Bounds are passed on as bounds.

Regarding `C=CC(=O)N1C[C@H](C)N(c2nc(OC[C@@H]3CCCN3C)nc3c(=O)n(-c4cccc5cccc(C)c45)c(C(F)(F)F)nc23)[C@@H](C)C1`, in data set [1] (IV, 1 mpk, plasma), the AUC is given as 1,170.65 nM · h, the C0 stood at 0.435 µM, the Cl was found to be 1.193 L/h/kg and the T1/2 came out at 2.74 h. This molecule showed a Vd in data set [1] (IV, 1 mpk, plasma) of 4.13 L/kg. Further, in data set [1] (PO 10 mpk vs IV 1 mpk), the F came to 57.89%. For the same molecule, in data set [1] (PO, 10 mpk, fasted, plasma), the AUC is 6,776.89 nM · h, the Cmax amounted to 0.793 µM, the T1/2 was 2.76 h and the time of peak concentration (Tmax) came out at 1.00 h. Besides, the IC50 in the data set with A549 is greater than 10 µM. Also, on KRAS G12C, the IC50 was 0.127 µM. Besides, the IC50 with MIA PaCa-2 worked out at 0.148 µM. For the same molecule, in the data set with NCI-H358, the IC50 amounted to 0.0627 µM.

The record behind these values is patent US20230212170A1, “INHIBITORS OF KRAS G12C PROTEIN AND USES THEREOF” (SHANGHAI ANTENGENE CORPORATION LIMITED, priority 2020, published 2023).
